Measurements as given in patent US9706755B2, “Controlled odor mimic permeation system” (dated 2017).
This is a selection: effects in other tests are not listed, and their absence says nothing. Marks after values point to notes of the source that are not given here.

Tests used:
[1] = Vapour pressure of organic explosives at 25° C.; details: for Vapour Pressure at 25° C.: extrapolated values (*)
[2] = system: explosives detection canines; experiment: Overall / individual canine performance (alerts plus interests over all hides; real explosives, odor chemicals, NESTT silica and petrolatum aids; Tables 69-72); details: for total number of alerts or interest / total number of hides: interest reported as alert; for overall canine population response to odor chemical (alert/interest): Table 70, all field tests pooled, canines 120, 140, 141 discounted; for Total, alerts or interest / hides / Total, alerts or interest as percent of hides: all canines 101-144; for Adjusted Total, alerts or interest / hides / Adjusted Total, alerts or interest as percent of hides: removing canines 120, 140 & 141
[3] = system: dogs in training; experiment: Initial imprinting of dogs in training on silica TNT mimic aid, cross-over to real TNT (Table 92); details: 28 g explosive in Scratch Box; dogs A, B, C imprinted on COMPS TNT aid, plus FIU dog
[4] = Dog Number 120 (20/28 false alerts, discounted from adjusted totals)
[5] = Table 69, alerts or interests over total hides
[6] = listed as 2,4,6-Trinitrotoluene

## Cc1ccc([N+](=O)[O-])cc1[N+](=O)[O-]
[1]
  vapour pressure relative to 2,4,6-trinitrotoluene: over 35 ×
  Vapour Pressure at 25° C.: 2.1 × 10^−4* torr
[2]; Dog Number 101
  total number of alerts or interest / total number of hides: 1/2
[2]; Dog Number 102
  total number of alerts or interest / total number of hides: 1/1
[2]; Dog Number 103
  total number of alerts or interest / total number of hides: 1/1
[2]; Dog Number 104
  total number of alerts or interest / total number of hides: 1/1
[2]; Dog Number 105
  total number of alerts or interest / total number of hides: 1/1
[2]; Dog Number 106
  total number of alerts or interest / total number of hides: 2/2
[2]; Dog Number 107
  total number of alerts or interest / total number of hides: 1/2
[2]; Dog Number 108
  total number of alerts or interest / total number of hides: 0/3
[2]; Dog Number 109
  total number of alerts or interest / total number of hides: 2/5
[2]; Dog Number 110
  total number of alerts or interest / total number of hides: 3/5
[2]; Dog Number 111
  total number of alerts or interest / total number of hides: 0/1
[2]; Dog Number 112
  total number of alerts or interest / total number of hides: 3/3
[2]; Dog Number 113
  total number of alerts or interest / total number of hides: 1/3
[2]; Dog Number 114
  total number of alerts or interest / total number of hides: 1/1
[2]; Dog Number 115
  total number of alerts or interest / total number of hides: 1/1
[2]; Dog Number 116
  total number of alerts or interest / total number of hides: 1/1
[2]; Dog Number 117
  total number of alerts or interest / total number of hides: 1/3
[2]; Dog Number 118
  total number of alerts or interest / total number of hides: 0/4
[2]; Dog Number 119
  total number of alerts or interest / total number of hides: 0/1
[2]; [4]
  total number of alerts or interest / total number of hides: 3/4
[2]; Dog Number 121
  total number of alerts or interest / total number of hides: 0/1
[2]; Dog Number 126
  total number of alerts or interest / total number of hides: 1/2
[2]; Dog Number 127
  total number of alerts or interest / total number of hides: 0/2
[2]; Dog Number 129
  total number of alerts or interest / total number of hides: 1/2
[2]; Dog Number 133
  total number of alerts or interest / total number of hides: 0/2
[2]; Dog Number 140 (4/6 false alerts, discounted from adjusted totals)
  total number of alerts or interest / total number of hides: 1/1
[2]; Dog Number 141 (4/6 false alerts, discounted from adjusted totals)
  total number of alerts or interest / total number of hides: 1/1
[2]; Dog Number 142
  total number of alerts or interest / total number of hides: 1/1
[2]; Dog Number 144
  total number of alerts or interest / total number of hides: 0/1
[2]
  overall canine population response to odor chemical (alert/interest): 46.2%
  Total, alerts or interest / hides: 29/58
  Total, alerts or interest as percent of hides: 50.0%
  Adjusted Total, alerts or interest / hides: 24/52
  Adjusted Total, alerts or interest as percent of hides: 46.2%

## Cc1c([N+](=O)[O-])cc([N+](=O)[O-])cc1[N+](=O)[O-]
[3]
  % Alert: 25.0%
  Alert (dogs): FIU
  No Alert (dogs): B, C
[1]
  vapour pressure relative to RDX: three orders of magnitude greater
[2]; Dog Number 101
  total number of alerts or interest / total number of hides: 2/2
[2]; Dog Number 101, listed as 2,4,6-Trinitrotoluene
  total number of alerts or interest / total number of hides: 0/2
[2]; Dog Number 102
  total number of alerts or interest / total number of hides: 1/1
[2]; Dog Number 103
  total number of alerts or interest / total number of hides: 1/1
[2]; Dog Number 104
  total number of alerts or interest / total number of hides: 1/1
[2]; Dog Number 105
  total number of alerts or interest / total number of hides: 1/1
[2]; Dog Number 106
  total number of alerts or interest / total number of hides: 1/1
[2]; Dog Number 106, listed as 2,4,6-Trinitrotoluene
  total number of alerts or interest / total number of hides: 2/2
[2]; Dog Number 107
  total number of alerts or interest / total number of hides: 0/1
[2]; Dog Number 108
  total number of alerts or interest / total number of hides: 1/2
[2]; Dog Number 109
  total number of alerts or interest / total number of hides: 1/2
[2]; Dog Number 110
  total number of alerts or interest / total number of hides: 1/1
[2]; Dog Number 110, listed as 2,4,6-Trinitrotoluene
  total number of alerts or interest / total number of hides: 1/2
[2]; Dog Number 111
  total number of alerts or interest / total number of hides: 1/1
[2]; Dog Number 112
  total number of alerts or interest / total number of hides: 1/1
[2]; Dog Number 113
  total number of alerts or interest / total number of hides: 1/1
[2]; Dog Number 113, listed as 2,4,6-Trinitrotoluene
  total number of alerts or interest / total number of hides: 0/2
[2]; Dog Number 114
  total number of alerts or interest / total number of hides: 0/1
[2]; Dog Number 115
  total number of alerts or interest / total number of hides: 1/1
[2]; Dog Number 116
  total number of alerts or interest / total number of hides: 1/1
[2]; Dog Number 117
  total number of alerts or interest / total number of hides: 1/1
[2]; Dog Number 117, listed as 2,4,6-Trinitrotoluene
  total number of alerts or interest / total number of hides: 0/1
[2]; Dog Number 118
  total number of alerts or interest / total number of hides: 1/1
[2]; Dog Number 118, listed as 2,4,6-Trinitrotoluene
  total number of alerts or interest / total number of hides: 0/1
[2]; Dog Number 119
  total number of alerts or interest / total number of hides: 1/1
[2]; Dog Number 119, listed as 2,4,6-Trinitrotoluene
  total number of alerts or interest / total number of hides: 0/1
[2]; [4]
  total number of alerts or interest / total number of hides: 2/2
[2]; Dog Number 121
  total number of alerts or interest / total number of hides: 0/1
[2]; [5]
  overall canine population performance on real explosives (location of the training aid): 100%
  overall canine population performance on real explosives (responses / hides): 10/10
[2]
  overall canine population response to odor chemical (alert/interest): 50.0%
  Total, alerts or interest / hides: 12/12
  Total, alerts or interest as percent of hides: 100%
  Adjusted Total, alerts or interest / hides: 10/10
  Adjusted Total, alerts or interest as percent of hides: 100%
[2]; [6]
  Total, alerts or interest / hides: 13/26
  Total, alerts or interest as percent of hides: 50.0%
  Adjusted Total, alerts or interest / hides: 13/26
  Adjusted Total, alerts or interest as percent of hides: 50.0%

## CC1(C)OOC(C)(C)OOC(C)(C)OO1
[1]
  Vapour Pressure at 25° C.: 3.7 × 10^−1* torr

## O=[N+]([O-])c1cccc([N+](=O)[O-])c1
[2]; Dog Number 101
  total number of alerts or interest / total number of hides: 0/2
[2]; Dog Number 102
  total number of alerts or interest / total number of hides: 0/1
[2]; Dog Number 103
  total number of alerts or interest / total number of hides: 0/1
[2]; Dog Number 104
  total number of alerts or interest / total number of hides: 0/1
[2]; Dog Number 105
  total number of alerts or interest / total number of hides: 0/1
[2]; Dog Number 106
  total number of alerts or interest / total number of hides: 2/2
[2]; Dog Number 107
  total number of alerts or interest / total number of hides: 0/1
[2]; Dog Number 108
  total number of alerts or interest / total number of hides: 1/2
[2]; Dog Number 109
  total number of alerts or interest / total number of hides: 1/2
[2]; Dog Number 110
  total number of alerts or interest / total number of hides: 0/2
[2]; Dog Number 111
  total number of alerts or interest / total number of hides: 1/1
[2]; Dog Number 112
  total number of alerts or interest / total number of hides: 1/1
[2]; Dog Number 113
  total number of alerts or interest / total number of hides: 1/2
[2]; Dog Number 114
  total number of alerts or interest / total number of hides: 1/1
[2]; Dog Number 115
  total number of alerts or interest / total number of hides: 1/1
[2]; Dog Number 116
  total number of alerts or interest / total number of hides: 1/1
[2]; Dog Number 117
  total number of alerts or interest / total number of hides: 0/1
[2]; Dog Number 118
  total number of alerts or interest / total number of hides: 0/1
[2]; Dog Number 119
  total number of alerts or interest / total number of hides: 0/1
[2]; Dog Number 121
  total number of alerts or interest / total number of hides: 0/1
[2]
  overall canine population response to odor chemical (alert/interest): 38.5%
  Total, alerts or interest / hides: 10/26
  Total, alerts or interest as percent of hides: 38.5%
  Adjusted Total, alerts or interest / hides: 10/26
  Adjusted Total, alerts or interest as percent of hides: 38.5%
